Laboratory results as given in publication PMC5731250 (Cell, 2017).

The chains behind the UniProt entries cited, without tags or fusion partners.
UniProt P42866, whole entry: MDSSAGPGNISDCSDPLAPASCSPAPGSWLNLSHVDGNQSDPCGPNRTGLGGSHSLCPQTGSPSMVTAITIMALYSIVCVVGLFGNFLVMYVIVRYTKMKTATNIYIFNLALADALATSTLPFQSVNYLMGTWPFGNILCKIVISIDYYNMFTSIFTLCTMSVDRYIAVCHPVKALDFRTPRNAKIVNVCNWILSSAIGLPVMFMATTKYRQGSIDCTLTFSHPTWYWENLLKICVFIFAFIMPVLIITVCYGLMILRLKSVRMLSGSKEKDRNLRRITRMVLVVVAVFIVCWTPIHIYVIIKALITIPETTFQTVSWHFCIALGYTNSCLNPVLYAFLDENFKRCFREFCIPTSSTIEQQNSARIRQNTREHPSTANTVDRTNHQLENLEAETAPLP

Tests used:
[1] = molecular target: T1, mouse MOR (Mus musculus, UniProt P42866)
[2] = molecular target: T1, mouse MOR; remark: listed apart in the source
[3] = molecular target: T1, mouse MOR; remark: listed apart in the source

CN1CC[C@]23c4c5ccc(O)c4O[C@H]2[C@@H](O)C=C[C@H]3[C@H]1C5 [Morphine]
Δlog(τ/KA) GTPγS (CHO) [1]: −0.42±0.07
Δlog(τ/KA) βarr2 (imaging) [2]: −0.33±0.07
GTPγS (CHO)/βarr2 Δδlog(τ/KA) [3]: −0.09 (−0.37 to 0.18)
